Source: publication PMC11249646, “Small-Molecule Disruptors of the Interaction between Calcium- and Integrin-Binding Protein 1 and Integrin αIIbβ3 as Novel Antiplatelet Agents” (ACS Pharmacology & Translational Science, 2024)

The chains behind the UniProt entries cited, without tags or fusion partners.
UniProt Q99828, whole entry: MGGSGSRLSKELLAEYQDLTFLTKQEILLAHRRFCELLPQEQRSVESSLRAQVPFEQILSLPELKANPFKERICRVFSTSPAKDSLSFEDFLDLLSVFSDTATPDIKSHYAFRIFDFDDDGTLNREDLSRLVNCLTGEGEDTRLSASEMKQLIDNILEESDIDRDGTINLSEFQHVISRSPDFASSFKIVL

Target: CIB1 and αIIb interaction (CIB1-GST : F-αIIb peptide) (Homo sapiens, UniProt Q99828)
Test: FP assay, 1536-well qHTS format (primary and confirmatory screen)
Format: binding
Conditions: qHTS primary screen hits, Table S2; for Efficacy (%): negative = inhibition; for Curve Class: negative sign = inhibitory curve
[1] = several classes where COUNT > 1

Efficacy (%)	Curve Class	IC50 [µM]	Curve Class [1]	SMILES
-53	-2.2			COc1c(O)cccc1[C@H](O)C1CCN(CCc2ccc(F)cc2)CC1 [NCGC00168042-01]
-20		4	-1.2	Cc1ccc(S(=O)(=O)N[C@@H](Cc2ccccc2)C(=O)CCl)cc1
-34		26.1		O=C1C[C@](c2ccc(N3CCOCC3)cc2)(c2ccsc2)NC(=O)C1Sc1ccccc1Cl (stereo partly shown)
-103		14.1	-1.1	O=C(CCC1=[N+]2C(=Cc3ccc(-c4cccs4)n3[B-]2(F)F)C=C1)NCCOCCOCCOc1ccc(-n2ncc3c2CCC[C@H]3NC(=O)c2ccccn2)cc1
